Our source for the Intrinsic activity and pKb values is ChEMBL document CHEMBL3120046, “Bis(ammonio)alkane-type agonists of muscarinic acetylcholine receptors: synthesis, in vitro functional characterization, and in vivo evaluation of their analgesic activity” (Eur J Med Chem, 2014).

Usually pKb stands for −log10 of the Kb, conventionally taken in molar units.

Assay [1] deals with Muscarinic acetylcholine receptor M3 (Cavia porcellus). Put plainly: Intrinsic activity at muscarinic M3 receptor in albino guinea pig ileum assessed as stimulation of electrically-induced response relative to bethanechol.
Assay [2] has as its target Muscarinic receptor 2 (Cavia porcellus) (UniProt Q8VH27). Put plainly: Intrinsic activity at muscarinic M2 receptor in albino guinea pig left atrium assessed as […] of electrically-induced response relative to bethanechol. The settings on record: Cardiac atrium. In outline:
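Cumulative agonist concentration-response curves (1 nM–30 µM) in isolated tissue, Krebs-Henseleit, carbogen, 37 °C, 1 g tension, isometric contraction. Curves repeated with atropine 0.1 µM and hexamethonium 100 µM. Mean ± SEM of 6–8 experiments.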

Assay [3] deals with Muscarinic acetylcholine receptor M3 (Cavia porcellus). Put plainly: Antagonist activity at muscarinic M3 receptor in albino guinea pig ileum assessed as inhibition of electrically-induced response.

Each structure is given as a SMILES string.

As to `CC(C)(CN1C(=O)c2cccc3cccc(c23)C1=O)C[N+](C)(C)CCCCCC[N+](C)(C)CCCN1C(=O)c2ccccc2C1=O`, the Intrinsic activity in assay [1] and in assay [2] was 0 throughout. Further, in assay [3], the pKb came to 5.49.

For `C[N+](C)(C)CC#CCOC1=NOCC1`, in assay [2], the Intrinsic activity turned out to be 1.
